The record followed here is patent publication US20250368662A1, “INHIBITORS OF INDOLEAMINE 2,3-DIOXYGENASE 1 (IDO1) AND TRYPTOPHAN 2,3-DIOXYGENASE (TDO) AND METHODS OF USING SAME” (University of South Carolina, priority 2024, published 2025).

Chains of the proteins cited; added tags and fusions are not shown.
UniProt P14902, whole entry: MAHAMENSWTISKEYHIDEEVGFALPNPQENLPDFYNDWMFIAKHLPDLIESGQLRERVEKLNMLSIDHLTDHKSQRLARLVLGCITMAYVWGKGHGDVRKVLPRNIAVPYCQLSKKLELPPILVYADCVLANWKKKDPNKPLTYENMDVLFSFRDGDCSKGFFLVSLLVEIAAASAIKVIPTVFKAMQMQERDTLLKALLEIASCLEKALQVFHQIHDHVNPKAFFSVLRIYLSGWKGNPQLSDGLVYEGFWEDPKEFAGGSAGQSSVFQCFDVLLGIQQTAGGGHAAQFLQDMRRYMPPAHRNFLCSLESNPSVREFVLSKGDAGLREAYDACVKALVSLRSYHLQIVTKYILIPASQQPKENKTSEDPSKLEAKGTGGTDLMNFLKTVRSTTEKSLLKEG
UniProt P48775, whole entry: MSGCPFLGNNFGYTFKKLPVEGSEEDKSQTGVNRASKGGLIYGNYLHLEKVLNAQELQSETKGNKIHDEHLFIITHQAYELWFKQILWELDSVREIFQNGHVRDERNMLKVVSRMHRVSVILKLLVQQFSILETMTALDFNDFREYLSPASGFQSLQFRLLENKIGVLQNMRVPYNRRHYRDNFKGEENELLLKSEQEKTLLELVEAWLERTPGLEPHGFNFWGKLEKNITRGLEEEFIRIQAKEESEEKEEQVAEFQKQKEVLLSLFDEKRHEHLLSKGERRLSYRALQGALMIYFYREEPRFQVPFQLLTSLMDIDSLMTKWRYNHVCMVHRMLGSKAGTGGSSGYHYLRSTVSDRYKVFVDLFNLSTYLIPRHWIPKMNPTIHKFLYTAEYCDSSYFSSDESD

Structures are written as SMILES.

Test [1] addresses IDO1 (Homo sapiens, UniProt P14902). Nature of the test: HeLa cell-based assay for inhibiting IDO1. The following applies: read-out: EC50/μM IDO1; HeLa cells, 100 ng/ml IFN-γ, 0.3 mM Trp, 48 hours incubation; tested form: TFA.
For test [2], the target named is TDO (Homo sapiens, UniProt P48775). Nature of the test: SW-48 cell-based assay for inhibiting TDO. The following applies: read-out: EC50/μM TDO; SW48 cells, 0.3 mM Trp, 48 hours incubation; tested form: TFA.

Turning to `COc1ccc(C2=CSC3=N[C@@H](CCCCNC(=O)Nc4cccc5ccccc45)CN23)cc1`, the EC50 was found to be 6.2 µM in test [1] and 9.4 µM in test [2].
`O=C(NCCCC[C@H]1CN2C(c3ccc(Cl)cc3)=CSC2=N1)Nc1ccccc1`: the EC50 in test [1] was found to be 2.3 µM; in test [2], 12.2 µM.
